Test [1] has as its target T1, S1P1 (Homo sapiens (Human), UniProt P21453). Put plainly: Receptor [35S] GTPγS binding assay (S1P1 GTPγS), membranes from S1P1/CHO cells. To be noted: read-out: S1P1 GTPγS; phosphate examples. Format: biochemical. On the technique in general: GTPγS is a poorly hydrolysed GTP analogue; its binding reports G protein activation.
The target in a further test is S1P3 (EDG3) (Homo sapiens (Human), UniProt Q99500). Put plainly: Receptor [35S] GTPγS binding assay (S1P3 GTPγS), membranes from EDG3-Gal5-bla HEK293T cells. To be noted: read-out: S1P3 GTPγS; phosphate examples.
In test [2] the target is T1, S1P1. Put plainly: S1P1 binding assay (33P-S1P radioligand competition, membranes from CHO cells). The note with it: read-out: S1P1 Binding; phosphate examples. On the technique in general: Loss of bound radioactivity is the signal in a displacement assay; it reports binding, not function.
A further test addresses hS1P1 (Homo sapiens (Human), UniProt P21453). Put plainly: hS1P1 ERK phosphorylation (S1P1 pERK) in hS1P1/CHO cells. To be noted: read-out: S1P1 pERK; phosphate examples.

Protein sequences, listed by entry. Tags and fused reporters are not part of them.
UniProt P21453, whole entry: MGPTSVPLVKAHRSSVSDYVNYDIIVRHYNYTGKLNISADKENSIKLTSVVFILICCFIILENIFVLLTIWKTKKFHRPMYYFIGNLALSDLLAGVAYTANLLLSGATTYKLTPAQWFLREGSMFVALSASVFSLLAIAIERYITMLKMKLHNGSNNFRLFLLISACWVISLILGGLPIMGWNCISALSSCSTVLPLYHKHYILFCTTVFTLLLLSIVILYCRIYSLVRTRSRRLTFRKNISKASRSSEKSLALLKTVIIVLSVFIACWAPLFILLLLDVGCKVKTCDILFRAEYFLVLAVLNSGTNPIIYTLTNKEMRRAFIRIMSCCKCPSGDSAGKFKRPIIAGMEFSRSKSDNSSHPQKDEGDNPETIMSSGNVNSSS
UniProt Q99500, whole entry: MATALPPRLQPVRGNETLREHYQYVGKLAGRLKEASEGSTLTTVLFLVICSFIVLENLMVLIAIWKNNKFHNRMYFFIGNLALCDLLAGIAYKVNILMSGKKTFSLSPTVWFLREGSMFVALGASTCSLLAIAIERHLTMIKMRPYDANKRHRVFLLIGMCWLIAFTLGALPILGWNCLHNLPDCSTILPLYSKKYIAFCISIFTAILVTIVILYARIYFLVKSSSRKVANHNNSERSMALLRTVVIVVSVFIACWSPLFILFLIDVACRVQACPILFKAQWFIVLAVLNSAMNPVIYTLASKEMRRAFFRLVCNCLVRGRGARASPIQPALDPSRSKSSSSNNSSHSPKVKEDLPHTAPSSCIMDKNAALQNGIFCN

SMILES strings stand for the structures.

The values below come from patent US10166249B2, “Substituted bicyclic compounds” (BRISTOL-MYERS SQUIBB COMPANY, priority 2014, dated 2019).

As to `COc1ccc(OC[C@@H]2CCc3cc([C@H]4CC[C@](N)(COP(=O)(O)O)C4)ccc3C2)cc1C(C)(C)C`, on S1P1 [1], the EC50 is 100 to 1000 nM.

Take `COCCCC1CCc2cc([C@H]3CC[C@](N)(COP(=O)(O)O)C3)ccc2C1` (single isomer, unassigned): the EC50 was 10 to 100 nM on S1P1 [1], more than 625 nM on S1P3 (EDG3) and less than 10 nM at hS1P1. Further, at S1P1 [2], the IC50 is less than 10 nM.
